Experiments:
ferroportin [1] = target: T1, ferroportin (Homo sapiens, UniProt Q9NP59); assay: T47D internalization assay in presence of mouse serum albumin; assay type: cell-based; set-up: a human breast carcinoma adherent cell line which endogenously expresses ferroportin; host or cells: T47D; conditions: T47D cells, 0.5% mouse serum albumin, 1 hr incubation
T1 sequence (Q9NP59 1-571): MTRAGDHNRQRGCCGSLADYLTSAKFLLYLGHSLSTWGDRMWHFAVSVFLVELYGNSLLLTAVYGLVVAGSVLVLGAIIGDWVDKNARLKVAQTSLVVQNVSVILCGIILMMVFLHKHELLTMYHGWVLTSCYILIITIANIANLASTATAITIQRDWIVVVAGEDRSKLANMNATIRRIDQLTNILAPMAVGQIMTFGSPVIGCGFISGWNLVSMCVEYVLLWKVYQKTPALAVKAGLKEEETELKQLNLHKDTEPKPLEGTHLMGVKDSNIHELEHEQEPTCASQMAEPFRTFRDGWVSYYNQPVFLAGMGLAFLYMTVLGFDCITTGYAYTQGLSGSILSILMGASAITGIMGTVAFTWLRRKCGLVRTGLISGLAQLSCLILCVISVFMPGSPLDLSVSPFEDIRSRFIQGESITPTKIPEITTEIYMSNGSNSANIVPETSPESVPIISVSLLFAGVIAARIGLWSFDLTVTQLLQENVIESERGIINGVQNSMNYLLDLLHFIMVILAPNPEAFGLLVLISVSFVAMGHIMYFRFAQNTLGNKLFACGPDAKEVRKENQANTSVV
How it was run: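 T47D cells exposed 1 h to 10-point peptide dilutions (top ~5 μM) preincubated 30 min with 0.5% mouse serum albumin. Then 200 nM AF647-labelled ferroportin-binding detection peptide for 2 h. Flow cytometry MFI of live singlets, IC50 by 4-parameter fit.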

ferroportin [2] = target: T1, ferroportin; assay: FPN internalization assay (FPN activity assay), loss of ferroportin-GFP fluorescence; assay type: cell-based
[3] = Table 1D, read-out: IC50: T47D MSA
[4] = Table 1D, HEK293 cells stably expressing ferroportin-GFP, compound at least 18 hours, read-out: IC50: FPN

SMILES: CC(C)CC(=O)N[C@H]1CCC(=O)NCCCC[C@H](C(N)=O)NC(=O)[C@H](C(c2ccccc2)c2ccccc2)NC(=O)[C@H](CCCCNC(=O)[C@H](CN)NC(=O)CCCc2ccc(I)cc2)N(C)C(=O)[C@H](C2CCCCC2)NC(=O)[C@@H]2CCCN2C(=O)[C@H](C(c2ccccc2)c2ccccc2)NC(=O)[C@H](Cc2c[nH]cn2)NC(=O)[C@H]([C@@H](C)O)NC1=O [compound 80]
- IC50 (ferroportin [1]; [3]): 10 to 100 nM
- IC50 (ferroportin [2]; [4]): 30 to 100 nM

SMILES: CC(C)CC(=O)N[C@@H](CCC(=O)O)C(=O)N[C@H](C(=O)N[C@@H](Cc1c[nH]cn1)C(=O)N[C@H](C(=O)N1CCC[C@H]1C(=O)N[C@@H](CCCCNC(=O)CCOCCOCCOCCOCCOCCOCCOCCOCCNC(=O)[C@H](CN)NC(=O)CCCc1ccc(I)cc1)C(=O)NCCCCCc1ccccc1)C(c1ccccc1)c1ccccc1)[C@@H](C)O [compound 81]
- IC50 (ferroportin [1]; [3]): 10 to 100 nM
- IC50 (ferroportin [2]; [4]): 1 to 30 nM

SMILES: CC(C)CC(=O)N[C@@H](CCC(=O)O)C(=O)N[C@H](C(=O)N[C@@H](Cc1c[nH]cn1)C(=O)N[C@H](C(=O)N1CCC[C@H]1C(=O)N[C@@H](CCCCNC(=O)CCOCCOCCOCCOCCNC(=O)[C@H](CN)NC(=O)CCCc1ccc(I)cc1)C(=O)NCCCCCc1ccccc1)C(c1ccccc1)c1ccccc1)[C@@H](C)O [compound 83]
- IC50 (ferroportin [1]; [3]): 0.1 to 10 nM
- IC50 (ferroportin [2]; [4]): 1 to 30 nM

SMILES: CC(C)CC(=O)N[C@@H](CCC(=O)O)C(=O)N[C@H](C(=O)N[C@@H](Cc1c[nH]cn1)C(=O)N[C@H](C(=O)N1CCC[C@H]1C(=O)N[C@@H](CCCCNC(=O)COCCOCCNC(=O)COCCOCCNC(=O)[C@H](CN)NC(=O)CCCc1ccc(I)cc1)C(=O)NCCCCCc1ccccc1)C(c1ccccc1)c1ccccc1)[C@@H](C)O [compound 84]
- IC50 (ferroportin [1]; [3]): 0.1 to 10 nM
- IC50 (ferroportin [2]; [4]): 1 to 30 nM

SMILES: CCCCCCCCCCCCCCCC(=O)NCC[N+](C)(C)CC(=O)NCCCCCCCCCCCC(=O)NCCCC[C@H](NC(=O)[C@@H]1CCCN1C(=O)[C@@H](NC(=O)[C@H](Cc1c[nH]cn1)NC(=O)[C@@H](NC(=O)[C@H](CCC(=O)O)NC(=O)CC(C)C)[C@@H](C)O)C(c1ccccc1)c1ccccc1)C(=O)NCCCCCc1ccccc1 [compound 86]
- IC50 (ferroportin [1]; [3]): 0.1 to 10 nM
- IC50 (ferroportin [2]; [4]): 100 to 500 nM

SMILES: CC(C)CC(=O)N[C@@H](CCC(=O)O)C(=O)N[C@H](C(=O)N[C@@H](Cc1c[nH]cn1)C(=O)N[C@H](C(=O)N1CCC[C@H]1C(=O)N[C@@H](CCCCNC(=O)CCCCCNC(=O)C[N+](C)(C)CCNC(=O)CCCCCCCCCCCCCCCCC(=O)O)C(=O)NCCCCCc1ccccc1)C(c1ccccc1)c1ccccc1)[C@@H](C)O [compound 87]
- IC50 (ferroportin [1]; [3]): 100 to 500 nM
- IC50 (ferroportin [2]; [4]): 30 to 100 nM

SMILES: CCCCCCCCCCCCCCCC(=O)N[C@@H](CCC(=O)NCC[N+](C)(C)CC(=O)NCCOCCOCCOCCOCCC(=O)NCCCC[C@H](NC(=O)[C@@H]1CCCN1C(=O)[C@@H](NC(=O)[C@H](Cc1c[nH]cn1)NC(=O)[C@@H](NC(=O)[C@H](CCC(=O)O)NC(=O)CC(C)C)[C@@H](C)O)C(c1ccccc1)c1ccccc1)C(=O)NCCCCCc1ccccc1)C(=O)O [compound 88]
- IC50 (ferroportin [1]; [3]): 0.1 to 10 nM
- IC50 (ferroportin [2]; [4]): 1 to 30 nM

SMILES: CCCCCCCCCCCCCCCC(=O)N[C@@H](CCC(=O)NCC[N+](C)(C)CC(=O)NCCCC[C@H](NC(=O)[C@@H]1CCCN1C(=O)[C@@H](NC(=O)[C@H](Cc1c[nH]cn1)NC(=O)[C@@H](NC(=O)[C@H](CCC(=O)O)NC(=O)CC(C)C)[C@@H](C)O)C(c1ccccc1)c1ccccc1)C(=O)NCCCCCc1ccccc1)C(=O)O [compound 89]
- IC50 (ferroportin [1]; [3]): 10 to 100 nM
- IC50 (ferroportin [2]; [4]): 1 to 30 nM

SMILES: CCCCCCCC(=O)N[C@@H](CCC(=O)NCCOCCOCC(=O)NCCOCCOCC(=O)NCCCC[C@H](NC(=O)[C@@H]1CCCN1C(=O)[C@@H](NC(=O)[C@H](Cc1c[nH]cn1)NC(=O)[C@@H](NC(=O)[C@H](CCC(=O)O)NC(=O)CC(C)C)[C@@H](C)O)C(c1ccccc1)c1ccccc1)C(=O)NCCCCCc1ccccc1)C(=O)O [compound 90]
- IC50 (ferroportin [1]; [3]): 10 to 100 nM
- IC50 (ferroportin [2]; [4]): 1 to 30 nM

SMILES: CCCCCCCCCCCCCCCC(=O)NCCCCCC(=O)NCCOCCOCC(=O)NCCOCCOCC(=O)NCCCC[C@H](NC(=O)[C@@H]1CCCN1C(=O)[C@@H](NC(=O)[C@H](Cc1c[nH]cn1)NC(=O)[C@@H](NC(=O)[C@H](CCC(=O)O)NC(=O)CC(C)C)[C@@H](C)O)C(c1ccccc1)c1ccccc1)C(=O)NCCCCCc1ccccc1 [compound 91]
- IC50 (ferroportin [1]; [3]): 0.1 to 10 nM
- IC50 (ferroportin [2]; [4]): 1 to 30 nM

SMILES: CCCCCCCCCCCCCCCC(=O)NCCCCCC(=O)NCCOCCOCCOCCOCCC(=O)NCCCC[C@H](NC(=O)[C@@H]1CCCN1C(=O)[C@@H](NC(=O)[C@H](Cc1c[nH]cn1)NC(=O)[C@@H](NC(=O)[C@H](CCC(=O)O)NC(=O)CC(C)C)[C@@H](C)O)C(c1ccccc1)c1ccccc1)C(=O)NCCCCCc1ccccc1 [compound 92]
- IC50 (ferroportin [1]; [3]): 0.1 to 10 nM
- IC50 (ferroportin [2]; [4]): 1 to 30 nM

SMILES: CC(C)CC(=O)N[C@@H](CCC(=O)O)C(=O)N[C@H](C(=O)N[C@@H](Cc1c[nH]cn1)C(=O)N[C@H](C(=O)N1CCC[C@H]1C(=O)N[C@@H](CCCCNC(=O)COCCOCCNC(=O)COCCOCCNC(=O)[C@H](CN)NC(=O)CCCCCCCCCCC(=O)O)C(=O)NCCCCCc1ccccc1)C(c1ccccc1)c1ccccc1)[C@@H](C)O [compound 96]
- IC50 (ferroportin [1]; [3]): 10 to 100 nM
- IC50 (ferroportin [2]; [4]): 1 to 30 nM

SMILES: CC(C)CC(=O)N[C@@H](CCC(=O)O)C(=O)N[C@H](C(=O)N[C@@H](Cc1c[nH]cn1)C(=O)N[C@H](C(=O)N1CCC[C@H]1C(=O)NCCCCc1ccc(I)cc1)C(c1ccccc1)c1ccccc1)[C@@H](C)O [compound 98]
- IC50 (ferroportin [1]; IC50: T47D MSA (nM, Table 1D)): > 500 nM
- IC50 (ferroportin [2]): > 500 nM

SMILES: CCCCCCCCCCCCCCCC(=O)NCC[N+](C)(C)CC(=O)NCCOCCOCC(=O)NCCOCCOCC(=O)NCCCC[C@H](NC(=O)[C@@H]1CCCN1C(=O)[C@@H](NC(=O)[C@H](Cc1c[nH]cn1)NC(=O)[C@@H](NC(=O)[C@H](CCC(=O)O)NC(=O)CC(C)C)[C@@H](C)O)C(c1ccccc1)c1ccccc1)C(=O)NCCCCc1ccc(I)cc1 [compound 99]
- IC50 (ferroportin [1]; IC50: T47D MSA (nM, Table 1D)): 10 to 100 nM
- IC50 (ferroportin [2]): 1 to 30 nM

SMILES: CCCCCCCCCCCCCCCC(=O)NCC[N+](C)(C)CC(=O)NCCOCCOCC(=O)NCCOCCOCC(=O)NCCCC[C@H](NC(=O)[C@@H]1CCCN1C(=O)[C@@H](NC(=O)[C@H](Cc1c[nH]cn1)NC(=O)[C@@H](NC(=O)[C@H](CCC(=O)O)NC(=O)CC(C)C)[C@@H](C)O)C(c1ccccc1)c1ccccc1)C(=O)NC1CCC(c2ccccc2)CC1 (stereo partly drawn) [compound 100]
- IC50 (ferroportin [1]; [3]): 0.1 to 10 nM
- IC50 (ferroportin [2]; [4]): > 500 nM

SMILES: CCCCCCCCCCCCCCCC(=O)NCC[N+](C)(C)CC(=O)NCCOCCOCC(=O)NCCOCCOCC(=O)NCCCC[C@H](NC(=O)[C@@H]1CCCN1C(=O)[C@@H](NC(=O)[C@H](Cc1c[nH]cn1)NC(=O)[C@@H](NC(=O)[C@H](CCC(=O)O)NC(=O)CC(C)C)[C@@H](C)O)C(c1ccccc1)c1ccccc1)C(=O)N1CCC(c2ccccc2)CC1 [compound 101]
- IC50 (ferroportin [1]; IC50: T47D MSA (nM, Table 1D)): 0.1 to 10 nM
- IC50 (ferroportin [2]): > 500 nM

SMILES: CCCCCCCCCCCCCCCC(=O)NCC[N+](C)(C)CC(=O)NCCOCCOCC(=O)NCCOCCOCC(=O)NCCCC[C@H](NC(=O)[C@@H]1CCCN1C(=O)[C@@H](NC(=O)[C@H](Cc1c[nH]cn1)NC(=O)[C@@H](NC(=O)[C@H](CCC(=O)O)NC(=O)CC(C)C)[C@@H](C)O)C(c1ccccc1)c1ccccc1)C(=O)NCCCc1ccc(C(C)(C)C)cc1 [compound 103]
- IC50 (ferroportin [1]; [3]): 0.1 to 10 nM
- IC50 (ferroportin [2]; [4]): > 500 nM

SMILES: CCCCCCCCCCCCCCCC(=O)NCC[N+](C)(C)CC(=O)NCCOCCOCC(=O)NCCOCCOCC(=O)NCCCC[C@H](NC(=O)[C@@H]1CCCN1C(=O)[C@@H](NC(=O)[C@H](Cc1c[nH]cn1)NC(=O)[C@@H](NC(=O)[C@H](CCC(=O)O)NC(=O)CC(C)C)[C@@H](C)O)C(c1ccccc1)c1ccccc1)C(=O)NCCCc1ccc(F)cc1 [compound 104]
- IC50 (ferroportin [1]; IC50: T47D MSA (nM, Table 1D)): 0.1 to 10 nM
- IC50 (ferroportin [2]): > 500 nM

SMILES: CCCCCCCCCCCCCCCC(=O)NCC[N+](C)(C)CC(=O)NCCOCCOCC(=O)NCCOCCOCC(=O)NCCCC[C@H](NC(=O)[C@@H]1CCCN1C(=O)[C@@H](NC(=O)[C@H](Cc1c[nH]cn1)NC(=O)[C@@H](NC(=O)[C@H](CCC(=O)O)NC(=O)CC(C)C)[C@@H](C)O)C(c1ccccc1)c1ccccc1)C(=O)NCc1ccc(N2CCOCC2)cc1 [compound 105]
- IC50 (ferroportin [1]; [3]): 0.1 to 10 nM
- IC50 (ferroportin [2]; [4]): > 500 nM

SMILES: CCCCCCCCCCCCCCCC(=O)NCC[N+](C)(C)CC(=O)NCCOCCOCC(=O)NCCOCCOCC(=O)NCCCC[C@H](NC(=O)[C@@H]1CCCN1C(=O)[C@@H](NC(=O)[C@H](Cc1c[nH]cn1)NC(=O)[C@@H](NC(=O)[C@H](CCC(=O)O)NC(=O)CC(C)C)[C@@H](C)O)C(c1ccccc1)c1ccccc1)C(=O)NCCCN1CCOCC1 [compound 106]
- IC50 (ferroportin [1]; [3]): 0.1 to 10 nM
- IC50 (ferroportin [2]; [4]): > 500 nM

SMILES: CCCCCCCCCCCCCCCC(=O)NCC[N+](C)(C)CC(=O)NCCOCCOCC(=O)NCCOCCOCC(=O)NCCCC[C@H](NC(=O)[C@@H]1CCCN1C(=O)[C@@H](NC(=O)[C@H](Cc1c[nH]cn1)NC(=O)[C@@H](NC(=O)[C@H](CCC(=O)O)NC(=O)CC(C)C)[C@@H](C)O)C(c1ccccc1)c1ccccc1)C(=O)NCCCC1CCCCC1 [compound 107]
- IC50 (ferroportin [1]; [3]): 0.1 to 10 nM
- IC50 (ferroportin [2]; [4]): > 500 nM

From patent US20250361280A1 (Protagonist Therapeutics, Inc., priority 2022, published 2025)
